Test results: ChEMBL document CHEMBL4610001 (J Med Chem, 2020)

Chains of the proteins cited; added tags and fusions are not shown. Lines headed by an entry give the natural chain unless they say otherwise; changes in a name come on top.
UniProt Q9HBW0, whole entry: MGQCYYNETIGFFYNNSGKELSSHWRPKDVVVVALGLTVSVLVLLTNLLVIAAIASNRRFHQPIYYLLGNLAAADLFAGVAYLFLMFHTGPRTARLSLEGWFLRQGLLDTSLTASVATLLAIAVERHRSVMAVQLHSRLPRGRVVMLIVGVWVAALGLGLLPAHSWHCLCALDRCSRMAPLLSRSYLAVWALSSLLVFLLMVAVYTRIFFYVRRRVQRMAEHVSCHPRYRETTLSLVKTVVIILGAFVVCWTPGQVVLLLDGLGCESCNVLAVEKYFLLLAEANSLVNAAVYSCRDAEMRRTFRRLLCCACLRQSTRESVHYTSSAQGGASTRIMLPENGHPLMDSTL
UniProt Q9H1C0: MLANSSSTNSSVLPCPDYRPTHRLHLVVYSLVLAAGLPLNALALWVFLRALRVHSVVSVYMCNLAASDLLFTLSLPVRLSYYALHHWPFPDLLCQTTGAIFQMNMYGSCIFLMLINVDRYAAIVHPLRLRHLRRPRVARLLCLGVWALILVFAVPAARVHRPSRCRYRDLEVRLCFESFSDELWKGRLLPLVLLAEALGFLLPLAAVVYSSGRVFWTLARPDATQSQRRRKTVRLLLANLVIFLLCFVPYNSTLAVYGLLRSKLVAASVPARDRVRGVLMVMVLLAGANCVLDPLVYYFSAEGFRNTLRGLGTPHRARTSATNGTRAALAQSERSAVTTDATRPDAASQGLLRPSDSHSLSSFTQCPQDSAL
UniProt Q99677: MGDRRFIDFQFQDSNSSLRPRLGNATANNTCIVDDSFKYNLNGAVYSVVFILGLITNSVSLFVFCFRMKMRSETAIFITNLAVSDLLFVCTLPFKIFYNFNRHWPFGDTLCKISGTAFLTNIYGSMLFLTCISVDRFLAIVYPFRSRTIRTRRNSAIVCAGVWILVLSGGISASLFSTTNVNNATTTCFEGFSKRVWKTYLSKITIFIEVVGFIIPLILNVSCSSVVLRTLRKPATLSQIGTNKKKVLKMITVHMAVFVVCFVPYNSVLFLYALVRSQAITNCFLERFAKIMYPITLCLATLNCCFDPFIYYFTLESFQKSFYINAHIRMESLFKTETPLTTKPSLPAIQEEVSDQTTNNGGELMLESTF

Columns and labels:
[1] = target: Lysophosphatidic acid receptor 2 (Homo sapiens) (UniProt Q9HBW0); assay: Agonist activity at human Flag-tagged LPA2 expressed in rat B103 cells assessed as increase in intracellular calcium level by Fluo-4 NW dye based fluorescence assay; assay type: functional, cell-based
[2] = target: T1, Lysophosphatidic acid receptor 6 (Homo sapiens) (UniProt P43657); assay: Agonist activity at human LPA6 expressed in rat B103 cells assessed as increase in intracellular calcium level by Fluo-4 NW dye based fluorescence assay; assay type: functional, cell-based
T1 sequence (whole entry): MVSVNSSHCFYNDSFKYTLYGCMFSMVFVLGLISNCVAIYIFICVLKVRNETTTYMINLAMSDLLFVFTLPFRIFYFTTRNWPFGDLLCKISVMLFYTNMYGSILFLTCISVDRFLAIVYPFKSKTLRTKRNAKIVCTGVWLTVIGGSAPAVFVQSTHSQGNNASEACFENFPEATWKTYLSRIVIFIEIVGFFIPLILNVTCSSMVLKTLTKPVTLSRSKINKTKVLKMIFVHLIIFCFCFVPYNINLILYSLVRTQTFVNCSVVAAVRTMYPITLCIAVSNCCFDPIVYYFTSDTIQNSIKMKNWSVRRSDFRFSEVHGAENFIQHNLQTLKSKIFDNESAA

[3] = target: Lysophosphatidic acid receptor 5 (Homo sapiens) (UniProt Q9H1C0); assay: Agonist activity at human LPA5 expressed in rat B103 cells assessed as increase in intracellular calcium level by Fluo-4 NW dye based fluorescence assay; assay type: functional, cell-based
Autotaxin (Homo sapiens) = Autotaxin (Homo sapiens) (UniProt Q13822)
[4] = target: T2, Lysophosphatidic acid receptor 3 (Homo sapiens) (UniProt Q9UBY5); assay: Agonist activity at human Flag-tagged LPA3 expressed in rat B103 cells assessed as increase in intracellular calcium level by Fluo-4 NW dye based fluorescence assay; assay type: functional, cell-based
T2 sequence (whole entry): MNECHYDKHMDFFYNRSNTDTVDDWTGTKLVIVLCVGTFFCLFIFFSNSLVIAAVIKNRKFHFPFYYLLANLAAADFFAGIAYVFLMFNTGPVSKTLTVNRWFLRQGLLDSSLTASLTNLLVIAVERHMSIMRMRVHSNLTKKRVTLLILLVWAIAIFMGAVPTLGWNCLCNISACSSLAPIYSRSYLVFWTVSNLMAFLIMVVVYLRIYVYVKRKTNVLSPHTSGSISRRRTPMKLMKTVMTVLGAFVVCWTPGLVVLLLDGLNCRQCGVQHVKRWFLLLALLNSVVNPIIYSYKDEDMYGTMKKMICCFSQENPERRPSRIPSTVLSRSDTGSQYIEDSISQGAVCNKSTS

[5] = target: Lysophosphatidic acid receptor 4 (Homo sapiens) (UniProt Q99677); assay: Agonist activity at human LPA4 expressed in rat B103 cells assessed as increase in intracellular calcium level by Fluo-4 NW dye based fluorescence assay; assay type: functional, cell-based

Measured: Activity

O=C(CCCCCCCCCc1ccccc1)O[C@H](CBr)COP(=O)(O)O
inactive: all assays above

Calls of active or inactive are those of the source.
